Laboratory results published in US6964979B2, “R-enantiomers of pyranoindole derivatives and the use thereof for the treatment of hepatitis C virus infection or disease” (Wyeth, priority 2002, dated 2005).

Tested on: HCV replicon (1b) in Clone A cells (derived from Huh-7)
Assay: HCV replicon ELISA (NS5a) in Clone A cells
Format: cell-based, Hepatitis C virus
Conditions: 3 days incubation
Experimental: The ability of the compounds of the present invention to inhibit Hepatitis C virus replicon constitutively expressed in a human liver cell line was established by the following experimental procedure:
Clone A cells (licensed from Apath, LLC) are derived from Huh-7 cells (human hepatoma cell line) and constitutively express of the HCV replication proteins with concomitant amplification the HCV replicon (1b) genome. Cells are maintained and passaged in DMEM/10% FCS/1 mg/ml G418 (Geneticin from Gibco #11811-023; other media components as described below in “elisa media”). Care should be taken to maintain cell monolayers at a subconfluent state by 1:3 or 1:4 passages every 3-4 days. The replicon is extremely sensitive to the cellular metabolism/proliferation state and replicon copy number will rapidly decline in confluent monolayers (resting cells). Under ideal conditions each cell has, on average, 1000 copies of the HCV replicon genome. […]
Compound Dilution/Cell Plating: • Drug Plate Preparation (Mother Plate) • 10 μl of compounds (in DMSO) are added to column 3 of the mother plate. […] Mother plates are set aside until ready for serial dilution to be performed. • Control Drugs […]

## Interferon-a2: reference compound of the HCV replicon ELISA assay
  IC50 (reference compound, replicon ELISA): 4-30 U/ml
